Values of other authors as cited in US20200129630A1, “METHODS FOR TREATING CANCER” (BicycleRD Limited, priority 2018, published 2020).

Key:
[1] = 120 and 360 mg/m^2 (2 and 6 mg/m^2 DM1 content); cited from earlier work
[2] = cited from earlier work

T-DM1
axonal degeneration [1]: moderate to severe axonal degeneration | AE anemia ([2]; GATSBY): 21-33% | AE fatigue ([2]; GATSBY): 33% | AE neutropenia ([2]; GATSBY): 10% | AE peripheral neuropathy ([2]; GATSBY): 10% | AE thrombocytopenia ([2]; GATSBY): 26% | AE transaminitis ([2]; GATSBY): 16% | GI AEs ([2]; GATSBY, constipation, vomiting, diarrhea, nausea, abdominal pain): 25% | patients experiencing peripheral neuropathy ([2]; human, in vivo): 20% | t1/2 ([2]; human, in vivo): ~96 h
